According to article PMC4136963, “Structure-Based Design and Synthesis of Antiparasitic Pyrrolopyrimidines Targeting Pteridine Reductase 1” (Journal of Medicinal Chemistry, 2014):

Test system: HEK 293T cells
Assay: Alamar blue assay against HEK cells
Format: cell-based
Settings: read-out: HEK (IC50 μM); human HEK cells

`O=[As]c1ccccc1` (stereo not shown) gave an IC50 of 1.49 µM.
